For assay [1], the target named is T1, hα7-wt nAChR (Homo sapiens, UniProt P36544). Put plainly: Ca2+ flux imaging (FDSS), potentiation of choline response. The note with it: for pEC50: hα7-wt nAChR-expressing GH4C1 cells, potentiation of 100 μM choline, compounds 0.01 μM to 30 μM; for % Efficacy: maximal effect, efficacy of 100 μM choline defined as 100% in the absence of a PAM, GH4C1 cells. How it is done: Ca^2+ Flux Imaging (FDSS)
• Hanks buffered saline solution (HBSS, Invitrogen, Belgium), supplemented with 10 mM HEPES (Invitrogen, Belgium), CaCl2 to a final concentration of 5 mM, 0.1% Bovine serum albumin (Sigma-Aldrich NV, Belgium). b) Calcium-Sensitive Dye—Fluo-4AM • Fluo-4AM (Molecular Probes, USA) was dissolved in DMSO containing 10% Pluronic acid (Molecular Probes, USA) to give a stock solution which was diluted in assay buffer supplemented with 5 mM probenicid (Sigma, Aldrich NV, Belgium) to give a final concentration of 2 μM. c) 384-Well Plates • Black 384 well plate black/clear plates, PDL pre-coated (Corning, Incorporated, USA) d) Calcium Flux Measurement • A Functional drug screening system (FDSS, Hamamatsu) was used to measure intracellular free-calcium flux signals. Method
Monolayers of hα7-wt nAChR-expressing GH4C1 cells were grown in multi-well plates, in particular black-sided, transparent bottomed 384 well plates coated with poly-D-lysine for 24 hours prior to loading with a fluorescent calcium indicator, in a particular embodiment loading with fluo-4AM for up to 120 minutes.
PAM activity was detected in real time by applying the compound to be tested to the loaded cells along with a α7 nicotinic receptor agonist during constant monitoring of the cellular calcium mobilization by fluorescence in a FDSS. Compounds giving peak fluorescent responses greater than the response due to agonist alone, were considered to be α7 nAChR PAM's. In a particular embodiment, the α7 nicotinic receptor agonist was choline, a more particular embodiment choline applied at a sub-maximal concentration of 100 μM. In a further setting of the present invention the compounds to be tested were applied prior to the α7 nicotinic receptor agonist, in a particular embodiment up to 10 minutes prior to the agonist.
A control response to choline was calculated on each plate from the difference in peak in fluorescence in wells receiving either choline or assay buffer alone. Compounds of the present invention were tested at a concentration range from 0.01 μM to 30 μM. Compounds were considered to have an interesting activity when they potentiated the choline signal at least with 200% when tested at a concentration of 30 μM (the efficacy of 100 μM choline was defined as 100% in the absence of a PAM).
EC50 values (potency), maximal effect (% efficacy), and Hill slopes were estimated by fitting the sigmoidal equation to the data using GraphPad Prism (GraphPad Software, Inc., San Diego, Calif.). An EC50 (or pEC50) was determined as a concentration relating to half the maximal effect, when a clear sigmoidal curve with top plateau was obtained.
In general terms: Calcium flux is commonly read through the fluorescence of an indicator in the cells.

Amino acid sequences for entries named in this document (tags omitted). Residues count along the entry.
UniProt P36544, 23-502 limits assumed: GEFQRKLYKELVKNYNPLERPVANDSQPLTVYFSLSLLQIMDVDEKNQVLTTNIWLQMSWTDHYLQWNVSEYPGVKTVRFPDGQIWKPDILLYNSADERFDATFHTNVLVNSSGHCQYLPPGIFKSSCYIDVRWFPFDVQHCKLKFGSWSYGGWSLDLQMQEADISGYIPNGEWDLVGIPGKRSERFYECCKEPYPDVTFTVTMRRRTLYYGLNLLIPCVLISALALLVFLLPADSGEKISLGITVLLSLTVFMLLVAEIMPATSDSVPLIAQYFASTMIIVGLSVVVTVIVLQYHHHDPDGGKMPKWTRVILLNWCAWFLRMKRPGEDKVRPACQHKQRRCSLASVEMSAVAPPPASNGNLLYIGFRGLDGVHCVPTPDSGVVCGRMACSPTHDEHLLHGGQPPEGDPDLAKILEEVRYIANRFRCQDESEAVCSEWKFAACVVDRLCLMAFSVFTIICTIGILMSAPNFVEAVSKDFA

Assay [2] concerns the target T1, hα7-wt nAChR. Put plainly: Whole-cell voltage-clamp recording, PAM type classification. The conditions noted are these: qualitative kinetic properties; 1 mM choline; hα7-wt nAChR-expressing GH4C1 cells. How it is done:
The compounds of the present invention are classified as type 1-4, based on qualitative kinetic properties, as determined by whole-cell voltage-clamp recordings. This classification is based on the effect of an α7 PAM compound, as described hereinbefore, on the signal elicited by an agonist application. In particular, said agonist is choline at a concentration of 1 mM. In a preferred experimental setting, said α7 PAM compound and choline are simultaneously applied to the cell, as described hereinafter. Desensitization is defined as the closure of the receptor upon activation during the application of the agonist in whole-cell voltage-clamp electrophysiology measurements seen as the reduction of the […] current after initial activation by the agonist.
The definition of the PAM types 1-4 is described hereinafter: • Type 1 compounds enhance the effect size of the current elicited by 1 mM choline but minimally alter the kinetics of the receptor. In particular, the rate and the extent of desensitization, elicited by the agonist, is not affected. The compound-modulated response to 1 mM choline, therefore, is a close to linear scaling of the 1 mM choline response in absence of the α7 PAM compound. • Type 2 compounds enhance the effect size of the current elicited by 1 mM choline while reducing the rate and/or the extent of desensitization. • Type 3 compounds enhance the effect size of the current elicited by 1 mM choline. […] At low-potency concentrations of the α7 PAM compound, the agonist-induced activation, which is followed by desensitization, can still be separated from the compound-induced re-opening as an initial inward current-maximum. At higher potency concentrations of the α7 PAM compound, the re-opening occurs faster than the closure due to desensitization so that the initial current-maximum disappears.
The compounds of the present invention also have a potentiating effect on the response to choline when measured by whole-cell voltage-clamp electrophysiology in GH4C1 cells stably over-expressing the human wild-type α7 receptor, as described hereinafter. […]

Usually pEC50 stands for the EC50 on a negative log10 scale, so that one unit is a factor of ten. For `CCCCC(O)Cn1nc(Nc2ccc(F)c(F)c2)nc1-c1ccnc(C)c1` (single isomer, unassigned) [E12], the pEC50 at hα7-wt nAChR [1] is given as 6.58. In addition, the PAM_type on hα7-wt nAChR [2] is listed as 2.
With `CCCCC(O)Cn1nc(Nc2ccc(F)c(F)c2)nc1-c1ccnc(C)c1` (single isomer, unassigned) [E11], on hα7-wt nAChR [1], the negative-log EC50 (pEC50) turned out to be 6.45 and the “% Efficacy” value turned out to be 1150%. Also, the PAM_type at hα7-wt nAChR [2] is on record as 1.
The corresponding values for `CC[C@@H](O)Cn1nc(Nc2ccc(F)c(F)c2)nc1-c1cc(C)nc(C)c1` are 6.00, 1270% and 2.

For the origin of these results see US8440701B2, “Trisubstituted 1,2,4 triazoles” (Janssen Pharmaceutica NV, priority 2007, dated 2013).
